## Antibody variant affinities, Ab-14 heavy chain, assay 1

Target peptide (SARS-CoV-2 spike, HR2 region): PDVDLGDISGINAS

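The parent was found by panning a naive human phage display library on the peptide. The library (AAYL49) carries one to three amino acid substitutions per variant, with no insertions or deletions. In AlphaSeq, yeast of one mating type display the scFv and yeast of the other type display the target. Mating (16 h, 30 °C) was followed by selection of diploids and sequencing of their barcodes. Scores were corrected for input abundance and mapped to Kd with protein pairs of known affinity run in the same pool. Mating was done three times.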

Each scFv is VH, a 15-residue (Gly4Ser)3 linker, VL, as in the parent Ab-14, and differs from it in the CDRs of the heavy chain only.
VH: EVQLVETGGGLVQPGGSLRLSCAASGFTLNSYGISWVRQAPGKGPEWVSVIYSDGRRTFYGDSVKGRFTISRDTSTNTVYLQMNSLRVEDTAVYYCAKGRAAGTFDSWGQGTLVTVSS
VL: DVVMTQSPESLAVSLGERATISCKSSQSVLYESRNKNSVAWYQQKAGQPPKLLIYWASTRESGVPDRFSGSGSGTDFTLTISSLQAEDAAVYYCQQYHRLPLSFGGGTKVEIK

Positions count from residue 1 of the parent VH; S31V puts V in place of S.
All variants listed here change F59 of the VH, counted from its first residue.
Numbers give log10(Kd / nM), so 0 is 1 nM and 3 is 1 µM. Smaller is tighter.
The mean shown is taken over the replicates in which the pair was detected.
"nd" marks a missing value. The strain was present, yet no cells mated with the target were sequenced in any replicate, which points to weak or no binding.
Three control strains display no target. For library AAYL49, 15% of the pairings with them gave a signal, with a median of 4.06 and one signal in twenty below 2.83, so weak values seen in few replicates may be background.

changes,"mean, log10 nM",seen in
S31V+F59W,2.47,3/3
F59I+S63Q+A101E,0.94,3/3
F59K+D62W+D106I,nd,0/3
F59Y+S63C+K65T,2.31,3/3
Y32S+F59A+G99W,3.35,2/3
F59L+K65E,2.23,1/3
G26C+F59A+D62F,5.02,2/3
S31E+F59V+F105K,1.33,3/3
L29S+F59R,nd,0/3
F59D+V64F+R100V,4.51,3/3
F59V+Y60D+T104Y,3.69,1/3
F59Q+Y60M+S63D,4.33,3/3
F59C+D62T+F105H,3.65,1/3
T28S+F59C+F105C,nd,0/3
Y52A+F59Q+A102H,nd,0/3
T28F+G33D+F59V,nd,0/3
S35V+V50R+F59S,nd,0/3
G33H+F59D+D106G,2.99,1/3
F27P+F59S+K65H,2.87,3/3
F59Q+Y60R+S63D,3.31,2/3
G33V+F59M+V64Q,3.97,1/3
F59T+T104V,nd,0/3
T58Y+F59D+D106Q,3.75,2/3
F59S+G99W+T104K,1.23,3/3
F59T,1.93,3/3
F59Q+S63T+S107G,2.65,3/3
S31I+F59R+S107Y,3.62,2/3
F59Q+Y60R+G99D,5.18,1/3
S31Y+Y32G+F59D,nd,0/3
F59A+D62K+S63G,nd,0/3
F59C+V64W+G103F,nd,0/3
F59C+D106G,2.72,3/3
S31T+D54I+F59Q,nd,0/3
S35P+F59A+G103T,2.97,1/3
F27E+F59P+R100N,nd,0/3
N30V+F59C+G99E,nd,0/3
L29G+F59L+D106K,nd,0/3
T28I+F59W,2.41,3/3
F59H+G103L,4.91,1/3
Y52G+F59G+K65A,5.45,1/3
V50P+F59G+A102N,4.75,1/3
S31Y+Y52A+F59Y,3.39,3/3
S53R+F59D+K65I,4.37,2/3
R56I+F59R+D106I,1.51,3/3
F59T+G99F+G103V,3.26,1/3
S53C+F59K+D62H,nd,0/3
V50Y+Y52F+F59L,nd,0/3
G26R+F59P,3.34,1/3
R57Y+F59H,nd,0/3
G33L+F59P+R100E,nd,0/3
S31R+Y52Q+F59C,nd,0/3
Y52R+F59N+S63Q,3.16,1/3
G33H+V50E+F59M,nd,0/3
V50T+F59E+Y60W,4.99,2/3
F59G+G61Y+D106R,3.92,2/3
F59T+T104N+F105L,2.60,2/3
F59G+S63H+T104E,nd,0/3
L29C+F59D+A102K,nd,0/3
N30C+F59V,2.05,1/3
S53G+F59W+D62E,3.40,3/3
G55H+R57V+F59S,5.46,1/3
G26Q+F59T+G61W,3.78,2/3
R57A+F59H+T104N,nd,0/3
T28A+F59E+G103M,0.72,3/3
F59K+V64P+G99N,nd,0/3
T28P+F59L+D106A,3.44,1/3

A selection of 9 entries from above:

changes,"mean, log10 nM",seen in
F59K+V64P+G99N,nd,0/3
S31Y+Y52A+F59Y,3.39,3/3
F59H+G103L,4.91,1/3
N30C+F59V,2.05,1/3
F59T+T104N+F105L,2.60,2/3
Y52R+F59N+S63Q,3.16,1/3
G33L+F59P+R100E,nd,0/3
N30V+F59C+G99E,nd,0/3
S53C+F59K+D62H,nd,0/3

Source: Engelhart et al. 2022 (doi:10.1038/s41597-022-01779-4), MIT Lincoln Laboratory and A-Alpha Bio; data file from the FLAb repository.